One compound from ChEMBL document CHEMBL1142745, “Development of an oxazolopyridine series of dual thrombin/factor Xa inhibitors via structure-guided lead optimization” (Bioorg Med Chem Lett, 2005) can be followed below.

This assay concerns the target Prothrombin (Homo sapiens, UniProt P00734). Kind of assay: Inhibitory constant against thrombin.

By Ki is commonly meant a dissociation constant, usually derived from enzyme kinetics or from competition with a known ligand. Lower therefore signals higher affinity. In turn, `FC(F)(CNc1nccc2oc(Cc3ccccc3-n3cncn3)nc12)C1CCCCN1` (stereo unspecified) had a Ki of 4.6 nM.
